Measurements published in paper PMC12090182, “Repurposing of the RIPK1-Selective Benzo[1,4]oxazepin-4-one Scaffold for the Development of a Type III LIMK1/2 Inhibitor” (ACS Chemical Biology, 2025).

The chains behind the UniProt entries cited, without tags or fusion partners.
UniProt P53667, whole entry: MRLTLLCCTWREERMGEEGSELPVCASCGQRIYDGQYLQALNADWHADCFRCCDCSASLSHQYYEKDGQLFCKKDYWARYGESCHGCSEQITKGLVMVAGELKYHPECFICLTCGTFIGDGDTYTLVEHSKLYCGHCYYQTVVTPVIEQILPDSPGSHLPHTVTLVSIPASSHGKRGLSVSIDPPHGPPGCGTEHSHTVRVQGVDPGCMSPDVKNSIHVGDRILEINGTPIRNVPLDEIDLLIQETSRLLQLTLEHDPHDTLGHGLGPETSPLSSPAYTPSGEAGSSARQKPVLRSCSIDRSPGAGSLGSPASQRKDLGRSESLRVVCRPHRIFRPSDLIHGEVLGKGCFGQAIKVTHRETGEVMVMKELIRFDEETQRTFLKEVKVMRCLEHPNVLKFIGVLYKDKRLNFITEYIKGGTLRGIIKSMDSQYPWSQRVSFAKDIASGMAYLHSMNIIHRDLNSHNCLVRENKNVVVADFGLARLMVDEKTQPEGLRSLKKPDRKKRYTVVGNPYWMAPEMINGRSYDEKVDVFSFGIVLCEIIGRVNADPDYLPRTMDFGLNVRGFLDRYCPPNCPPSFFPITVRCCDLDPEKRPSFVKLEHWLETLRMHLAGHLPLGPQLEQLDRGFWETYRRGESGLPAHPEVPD
UniProt P53671, whole entry: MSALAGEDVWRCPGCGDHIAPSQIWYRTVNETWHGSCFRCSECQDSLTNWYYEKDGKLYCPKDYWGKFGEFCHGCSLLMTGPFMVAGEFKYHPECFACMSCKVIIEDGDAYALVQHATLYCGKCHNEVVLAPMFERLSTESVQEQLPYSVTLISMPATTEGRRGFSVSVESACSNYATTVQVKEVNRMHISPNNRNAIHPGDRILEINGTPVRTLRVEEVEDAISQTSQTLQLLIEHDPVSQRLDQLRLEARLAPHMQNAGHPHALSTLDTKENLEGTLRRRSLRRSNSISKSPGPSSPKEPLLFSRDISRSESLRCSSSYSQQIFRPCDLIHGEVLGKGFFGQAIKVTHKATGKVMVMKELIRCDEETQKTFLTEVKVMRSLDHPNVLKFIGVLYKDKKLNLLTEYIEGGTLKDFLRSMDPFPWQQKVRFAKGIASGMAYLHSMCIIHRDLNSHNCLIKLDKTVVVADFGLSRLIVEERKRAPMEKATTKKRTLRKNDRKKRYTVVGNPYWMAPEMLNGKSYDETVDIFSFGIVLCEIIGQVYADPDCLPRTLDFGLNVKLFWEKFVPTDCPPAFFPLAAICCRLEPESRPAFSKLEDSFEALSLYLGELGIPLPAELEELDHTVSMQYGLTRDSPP
UniProt Q13546, whole entry: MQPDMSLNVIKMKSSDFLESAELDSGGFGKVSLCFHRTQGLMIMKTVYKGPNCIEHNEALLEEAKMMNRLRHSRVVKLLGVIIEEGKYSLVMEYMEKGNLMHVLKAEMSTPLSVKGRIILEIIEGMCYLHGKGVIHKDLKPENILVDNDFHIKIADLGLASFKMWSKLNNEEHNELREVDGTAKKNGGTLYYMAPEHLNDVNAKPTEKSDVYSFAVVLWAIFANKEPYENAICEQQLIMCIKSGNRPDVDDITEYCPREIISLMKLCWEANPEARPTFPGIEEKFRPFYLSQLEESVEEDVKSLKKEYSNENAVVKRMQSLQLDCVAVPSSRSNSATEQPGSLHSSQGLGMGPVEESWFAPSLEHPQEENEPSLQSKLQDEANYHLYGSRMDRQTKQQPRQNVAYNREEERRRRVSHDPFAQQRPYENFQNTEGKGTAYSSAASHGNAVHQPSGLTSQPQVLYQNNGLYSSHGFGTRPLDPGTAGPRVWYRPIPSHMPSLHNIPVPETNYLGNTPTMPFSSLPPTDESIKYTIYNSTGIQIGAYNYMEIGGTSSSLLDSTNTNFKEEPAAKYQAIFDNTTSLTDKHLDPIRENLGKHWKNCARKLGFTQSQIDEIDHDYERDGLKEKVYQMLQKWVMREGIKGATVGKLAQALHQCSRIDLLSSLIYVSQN

Experiments:
Experiment in all cases: NanoBRET cellular target engagement
Format in all cases: cell-based
LIMK1 = LIMK1 (Homo sapiens, UniProt P53667); details: read-out: EC50 (NanoBRET); LIMK1, HEK293T cells
LIMK2 = LIMK2 (Homo sapiens, UniProt P53671); details: read-out: EC50 (NanoBRET); LIMK2, HEK293T cells
RIPK1 = RIPK1 (Homo sapiens, UniProt Q13546); details: read-out: EC50 (NanoBRET); RIPK1, HEK293T cells

- EC50 (LIMK1): 16 µM
- EC50 (LIMK2): 8.6 µM
- EC50 (RIPK1): 0.0031 µM
Compound: CN1C(=O)[C@@H](N2CCc3c(nn(Cc4ccccc4)c3Br)C2=O)COc2ccccc21
